This passage reports % vs. Experimental group, CHO/GLP-1R bioassay, EC50, in vitro activity - CHO/GLP-1R bioassay and in vitro potency relative to the isomer linked results from patent publication US20220249615A1.

The target of the experiment is GLP-1R. Description: cell-based or functional assay.

On to “CA Exendin (lysine)-PEG-(lysine) Fc (from UniProt P26349)”, for which the % vs. Experimental group, CHO/GLP-1R bioassay was 16.1% and the EC50, in vitro activity - CHO/GLP-1R bioassay was 0.591 µg/mL.

On to “CA Exendin (lysine)-PEG-(N-terminus) Fc (from UniProt P26349)”, for which the % vs. Experimental group, CHO/GLP-1R bioassay stood at 100%; the EC50, in vitro activity - CHO/GLP-1R bioassay was 0.0953 µg/mL; the in vitro potency relative to the isomer linked at another position of the Fc turned out to be 6 times.
